In article PMC6017931, “A Novel Class of Schistosoma mansoni Histone Deacetylase 8 (HDAC8) Inhibitors Identified by Structure-Based Virtual Screening and In Vitro Testing” (Molecules : A Journal of Synthetic Chemistry and Natural …, 2018):

Biological target: T1, smHDAC8 (Schistosoma mansoni, UniProt A5H660)
T1 construct: made in house; host or cells: E. coli
T1 sequence (A5H660 1-440): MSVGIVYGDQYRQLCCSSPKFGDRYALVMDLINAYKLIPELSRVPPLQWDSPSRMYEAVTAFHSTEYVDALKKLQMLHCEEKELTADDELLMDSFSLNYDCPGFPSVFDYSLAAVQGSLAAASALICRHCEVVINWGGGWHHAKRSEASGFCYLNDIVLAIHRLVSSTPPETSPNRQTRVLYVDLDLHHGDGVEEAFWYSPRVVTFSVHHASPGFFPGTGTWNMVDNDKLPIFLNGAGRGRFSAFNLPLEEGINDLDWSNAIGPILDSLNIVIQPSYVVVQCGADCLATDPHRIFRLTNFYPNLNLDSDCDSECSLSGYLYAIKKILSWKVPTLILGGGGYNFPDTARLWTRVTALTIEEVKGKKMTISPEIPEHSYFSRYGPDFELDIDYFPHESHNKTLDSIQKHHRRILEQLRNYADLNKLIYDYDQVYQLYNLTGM
Test: smHDAC8 in vitro inhibition assay
Type: biochemical
Conditions: mean ± S.E.; Fluor de Lys-HDAC8 substrate 50 µM, 90 min at 37 °C
Experimental: The biological assay was carried out using purified smHDAC8 protein and the small molecule substrate Z(Tfa)Lys-AMC (ZMTFAL) as previously reported. To assess the selectivity, the selected compounds were further tested against the human orthologue hsHDAC8 as well as the major human HDAC isoforms (HDAC1 and -6) using an established in vitro assay.
Recombinant human HDAC1 and HDAC6 were purchased from BPS Bioscience. Recombinant human HDAC8 was expressed and purified as previously described. Recombinant smHDAC8 enzyme was produced in E. coli cells and purified by a method previously described by us. Inhibition assays of smHDAC8 and human HDACs were performed as already described in previous publications. Briefly, the commercial Fluor de Lys kit (BML-KI178) was used for testing inhibition of smHDAC8 and hsHDAC8. Test compounds, Fluor de Lys-HDAC8 substrate (50 µM) and enzyme were incubated for 90 min at 37 °C with subsequent addition of 50 μL Developer II (BML-KI176) and further incubation for 45 min at 30 °C. Fluorescence was measured in a plate reader (BMG Polarstar) with excitation at λ = 390 nm and emission at λ = 460 nm. Inhibition tests of human HDAC1 and 6 were conducted using ZMAL (Cbz-(Ac)Lys-AMC) as substrate and trypsin as a developer. […] Fluorescence was measured similarly as mentioned above. IC50 values were determined with OriginPro (version 9.0.0, Northampton, MA, USA). […]

O=C(CCCCCCC(=O)Nc1ccccc1)NO [SAHA, reference compound]
IC50: 1.56 ± 0.2 µM
